Broadly, the Kd is the equilibrium constant for the complex coming apart. For orientation: koff means the first-order rate constant of dissociation. One may read the kon as a measure of how fast the partners come together. A word on the EC50: it is the midpoint of the concentration-response curve.

This is an account of results in patent US20190375844A1 (OSE IMMUNOTHERAPEUTICS, published 2019).

For assay [1], the target named is T1, recombinant hCD127 (Sino Biologicals, reference 10975-H08H) (human, UniProt P16871 21-239).
T1 construct: Bought recombinant protein; In the Blitz assay the protein is said to be captured by an Fc fragment, and a second catalogue number (11612-H08H) is printed; also called human CD127 recombinant protein; recombinant human CD127
T1 chain: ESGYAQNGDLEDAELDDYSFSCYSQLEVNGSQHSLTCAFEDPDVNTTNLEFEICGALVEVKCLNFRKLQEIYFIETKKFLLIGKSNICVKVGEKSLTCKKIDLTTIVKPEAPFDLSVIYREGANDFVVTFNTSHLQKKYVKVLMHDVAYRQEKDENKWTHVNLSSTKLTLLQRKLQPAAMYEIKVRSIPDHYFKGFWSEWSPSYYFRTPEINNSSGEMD
As to the kind of experiment: Blitz (BLI), hCD127 captured on anti-human IgG Fc (AHC) biosensor, antibody at 20 µg/mL. On the procedure:
Recombinant hCD127 (Sino Biologicals, Beijing, China; reference 10975-H08H)/recombinant protein (Sino Biological Cat: 11612-H08H) was immobilized at 50 μg/ml by Fc fragment into anti-human IgG Fc (AHC) biosensor (Forte Bio, 18-5063) for 30 seconds. Then, anti-CD127 antibodies were added at 20 μg/mL (saturating concentration) for an association period of 120 seconds, followed by a dissociation period of anti-CD127 antibody in kinetics buffer for 120 seconds. Data analysis was made with the Blitz pro 1.2 software, which calculated association constant (ka) and dissociation constant (kd) and determined the affinity constant KD […].

For assay [2], the target named is T1, recombinant hCD127 (Sino Biologicals, …). Kind of assay: ELISA, hCD127 immobilized on plastic at 1 µg/ml (given as ED50). On the procedure: For activity ELISA assay, recombinant hCD127 (Sino Biologicals, Beijing, China; reference 10975-H08H) was immobilized on plastic at 1 μg/ml and dilutions of anti-CD127 antibody were added to measure binding.

B1: N13B2-hVL3 (antibody, V domains shown)
VH: QVQLVESGGGLVKPGGSLRLSCAVSGFTLSDYYMAWIRQAPGKGLEWVSTISASGLRTYYPDSVKGRFTISRDNAKNSLYLQMNSLRAEDTAVYYCARPLSAHYGFNYFDYWGQGTLVTVSS
VL: DIQMTQSPSSLSASVGDRVTITCRTSEDIYQGLAWYQQKPGKAPKLLVYSANTLHIGVPSRFSGSGSGTDYTLTISSLQPEDFATYFCQQYYDYPLAFGGGTKVEIKR
B1: in assay [1], the Kd came out at 3.51 nM, the koff stood at 0.00447 s⁻¹ and the kon amounted to 1.27e+06 M⁻¹ s⁻¹. In addition, in assay [2], the EC50 amounted to 0.0151 µg/mL.
